The source of these data is ChEMBL document CHEMBL1139192, “Novel bis(indolyl)maleimide pyridinophanes that are potent, selective inhibitors of glycogen synthase kinase-3” (Bioorg Med Chem Lett, 2007).

By UniProt entry, the sequences of proteins in these tests, tags left out.
UniProt P49137, whole entry, looked up: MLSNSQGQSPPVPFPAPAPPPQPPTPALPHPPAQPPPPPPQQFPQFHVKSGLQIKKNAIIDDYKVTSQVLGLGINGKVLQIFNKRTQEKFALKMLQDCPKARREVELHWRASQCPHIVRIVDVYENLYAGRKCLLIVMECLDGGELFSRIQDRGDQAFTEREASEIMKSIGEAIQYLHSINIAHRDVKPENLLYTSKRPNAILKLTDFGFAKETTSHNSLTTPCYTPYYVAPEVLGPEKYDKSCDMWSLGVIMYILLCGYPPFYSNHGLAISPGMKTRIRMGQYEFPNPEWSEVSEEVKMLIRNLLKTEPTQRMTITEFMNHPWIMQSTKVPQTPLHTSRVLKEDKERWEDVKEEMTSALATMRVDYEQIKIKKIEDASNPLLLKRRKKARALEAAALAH

The test system of one assay is Saccharomyces cerevisiae. Description: Residual activity of yeast CK1 at 1 uM relative to control.
The species entered for a further assay is Homo sapiens. Description: Residual activity of human CDK1/Cyclin B at 1 uM relative to control.
The nature of assay [1]: Inhibition of MEK1 at 1 uM relative to control; values are per cent of control. To be noted: Homo sapiens.
For assay [2], the target named is MAP kinase-activated protein kinase 2 (Homo sapiens) (UniProt P49137). Description: Inhibition of MAPKAPK2 at 1 uM relative to control; values are per cent of control.
Another assay is filed under the species Rattus norvegicus. Description: Inhibition of rat CaMK2 at 1 uM relative to control; values are per cent of control.

SMILES strings stand for the structures.

As to `O=C1NC(=O)C2=C1c1cn(c3ccccc13)CCCc1ccc(c(N3CCCC3)n1)CCCn1cc2c2ccccc21`, the residual activity turned out to be 98% in the assay on Saccharomyces cerevisiae; 98% in the assay filed under Homo sapiens; 98% in assay [1]; 95% in assay [2]; 98% in the assay listed under Rattus norvegicus.
